Measured values taken from US4522803A (priority 1983, dated 1985).

Key:
B. canis [1] = format: cell-based; conditions: suspension culture
B. canis [2] = system: B. canis; parameters: species or system B. canis ATCC 23365; conditions: in vivo

Compound: NC[C@H]1O[C@H](O[C@H]2[C@H](O)[C@@H](O[C@H]3O[C@H](CO)[C@@H](O)[C@H](N)[C@H]3O)[C@H](N)C[C@@H]2N)[C@H](O)[C@@H](O)[C@@H]1O [Kanamycin]
- Killing of B. canis in vitro (B. canis [1]): kill B. canis in vitro
- Colony-Forming Units B. Canis Per Spleen (B. canis [2]): 2.72 ± 0.91 × 10^5
